These results are taken from patent US8399480B2, “Hydroxymethyl pyrrolidines as beta 3 adrenergic receptor agonists” (Merck Sharp & Dohme Corp., priority 2008, dated 2013).

Protein sequences, listed by entry. Tags and fused reporters are not part of them.
UniProt P13945, whole entry: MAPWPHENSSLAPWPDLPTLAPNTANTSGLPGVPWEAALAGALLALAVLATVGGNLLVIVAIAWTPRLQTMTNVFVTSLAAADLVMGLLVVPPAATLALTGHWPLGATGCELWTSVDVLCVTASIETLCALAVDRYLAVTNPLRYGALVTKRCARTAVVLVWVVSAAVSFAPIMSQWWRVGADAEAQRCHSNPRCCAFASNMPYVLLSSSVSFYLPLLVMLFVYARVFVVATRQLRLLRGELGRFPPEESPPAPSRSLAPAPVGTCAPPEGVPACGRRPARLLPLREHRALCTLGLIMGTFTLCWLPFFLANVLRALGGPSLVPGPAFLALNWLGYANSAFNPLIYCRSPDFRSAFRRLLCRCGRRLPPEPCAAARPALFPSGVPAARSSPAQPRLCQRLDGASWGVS

The target of the experiment is human β3 adrenergic receptor (Homo sapiens, UniProt P13945). The experiment in a line: Functional assay: cAMP production (LANCE TR-FRET) in CHO cells stably transfected with cloned β3 adrenergic receptor. It counts as cell-based.
[1] abbreviates: read-out: Human β Binding, Table 4, human β3 functional activity.
Setting [2] is: read-out: Human β3 Functional, Table 6.
[3] abbreviates: read-out: Human β3 Functional, Table 5.

Like-named read-outs stand apart in the source and are kept apart here.

For `O=C(Cn1cnccc1=O)Nc1ccc(C[C@@H]2CC[C@H]([C@H](O)c3ccccc3)N2)cc1`, under setting [1], the EC50 fell in the range of 1 to 10 nM.

As for `O=C(CC1C=NC=NC1=O)Nc1ccc(C[C@@H]2CC[C@H]([C@H](O)c3ccccc3)N2)cc1` (some centres unmarked), the EC50 under setting [1] lay in the range of 11 to 100 nM.

In the case of `O=C(Cn1c(=O)ccc2ncccc21)Nc1ccc(C[C@@H]2CC[C@H]([C@H](O)c3ccccc3)N2)cc1`, the EC50 under setting [1] lay in the range of 101 to 1000 nM.

Regarding `Nc1nc2c(s1)CCC2C(=O)Nc1ccc(C[C@H]2CC[C@H]([C@H](O)c3ccccc3)N2)cc1` (single isomer, unassigned) [226], under setting [2], the EC50 fell in the range of 101 to 1000 nM.

For the compound `CC(C(=O)Nc1ccc(C[C@@H]2CC[C@H]([C@H](O)c3ccccc3)N2)cc1)c1nnn(C)n1` (single isomer, unassigned) [175], the EC50 under setting [3] lay within 1 to 10 nM.

`Nc1nc2c(s1)CCC2C(=O)Nc1ccc(C[C@H]2CC[C@H]([C@H](O)c3ccccc3)N2)cc1` (single isomer, unassigned) [225]: under setting [2], the EC50 lay in the range of 11 to 100 nM.

As to `C[C@@H](C(=O)Nc1ccc(C[C@@H]2CC[C@H]([C@H](O)c3ccccc3)N2)cc1)N(C)C(=O)c1ccccc1F`, the EC50 (read-out: Human β^3 Functional, Table 9, tested form: TFA) was 11 to 100 nM.

For `O=C(Nc1ccc(C[C@@H]2CC[C@H]([C@H](O)c3ccccc3)N2)cc1)C1Cc2ccccc2C1`, the EC50 under setting [3] lay in the range of 101 to 1000 nM.

Consider `O=C(Nc1ccc(C[C@@H]2CC[C@H]([C@H](O)c3ccccc3)N2)cc1)[C@H]1CCc2scnc21`, for which the EC50 under setting [3] was 11 to 100 nM.

`Cc1cnn(CC(=O)Nc2ccc(C[C@@H]3CC[C@H]([C@H](O)c4ccccc4)N3)cc2)c(=O)c1`: the EC50 under setting [1] was in the range of 1 to 10 nM.

In the case of `Cc1nnc(C(C)C(=O)Nc2ccc(C[C@@H]3CC[C@H]([C@H](O)c4ccccc4)N3)cc2)[nH]1` (single isomer, unassigned), the EC50 under setting [3] is 1 to 10 nM.

With `Cc1nc2c(s1)CCC2C(=O)Nc1ccc(C[C@H]2CC[C@H]([C@H](O)c3ccccc3)N2)cc1` (single isomer, unassigned) [229], under setting [2], the EC50 lay within 11 to 100 nM.

As to `Nc1nc2c(s1)CCC2C(=O)Nc1ccc(C[C@@H]2CC[C@H]([C@H](O)c3ccccc3)N2)cc1` (single isomer, unassigned) [114], the EC50 under setting [3] is 1 to 10 nM.

Regarding `O=S(=O)(Nc1ccc(C[C@@H]2CC[C@H]([C@H](O)c3ccccc3)N2)cc1)c1cc(C(F)(F)F)cc(C(F)(F)F)c1`, the EC50 (read-out: Human β3 Functional, Table 7, β3AR-cAMP) is 11 to 100 nM.

Turning to `O=C(Nc1ccc(C[C@@H]2CC[C@H]([C@H](O)c3ccccc3)N2)cc1)C1CCc2scnc21` (single isomer, unassigned), the EC50 under setting [3] is below 1 nM.

On to `CC(C(=O)Nc1ccc(C[C@@H]2CC[C@H]([C@H](O)c3ccccc3)N2)cc1)n1cnccc1=O` (single isomer, unassigned), for which the EC50 under setting [3] is 1 to 10 nM.

For `Cc1nc2c(s1)CCC2C(=O)Nc1ccc(C[C@H]2CC[C@H]([C@H](O)c3ccccc3)N2)cc1` (single isomer, unassigned) [230], the EC50 under setting [2] lay in the range of 101 to 1000 nM.

`O=C(Cn1c(=O)cnc2ccccc21)Nc1ccc(C[C@@H]2CC[C@H]([C@H](O)c3ccccc3)N2)cc1`: the EC50 under setting [1] fell in the range of 1 to 10 nM.

As to `O=C(Cn1ccccc1=O)Nc1ccc(C[C@@H]2CC[C@H]([C@H](O)c3ccccc3)N2)cc1`, the EC50 under setting [1] lay within 1 to 10 nM.

For the compound `O=C(Nc1ccc(C[C@@H]2CC[C@H]([C@H](O)c3ccccc3)N2)cc1)C1CCCN1c1ccc(Br)cc1` (some centres unmarked), the EC50 under setting [1] lay within 101 to 1000 nM.
